Test results as given in publication PMC9581132, “Cross clinical-experimental-computational qualification of in silico drug trials on human cardiac purkinje cells for proarrhythmia risk prediction” (Frontiers in Toxicology, 2022).

Amino acid sequences for entries named in this document (tags omitted). A change or cut given only in a name is not applied to a line headed by its entry.
UniProt Q13936, whole entry: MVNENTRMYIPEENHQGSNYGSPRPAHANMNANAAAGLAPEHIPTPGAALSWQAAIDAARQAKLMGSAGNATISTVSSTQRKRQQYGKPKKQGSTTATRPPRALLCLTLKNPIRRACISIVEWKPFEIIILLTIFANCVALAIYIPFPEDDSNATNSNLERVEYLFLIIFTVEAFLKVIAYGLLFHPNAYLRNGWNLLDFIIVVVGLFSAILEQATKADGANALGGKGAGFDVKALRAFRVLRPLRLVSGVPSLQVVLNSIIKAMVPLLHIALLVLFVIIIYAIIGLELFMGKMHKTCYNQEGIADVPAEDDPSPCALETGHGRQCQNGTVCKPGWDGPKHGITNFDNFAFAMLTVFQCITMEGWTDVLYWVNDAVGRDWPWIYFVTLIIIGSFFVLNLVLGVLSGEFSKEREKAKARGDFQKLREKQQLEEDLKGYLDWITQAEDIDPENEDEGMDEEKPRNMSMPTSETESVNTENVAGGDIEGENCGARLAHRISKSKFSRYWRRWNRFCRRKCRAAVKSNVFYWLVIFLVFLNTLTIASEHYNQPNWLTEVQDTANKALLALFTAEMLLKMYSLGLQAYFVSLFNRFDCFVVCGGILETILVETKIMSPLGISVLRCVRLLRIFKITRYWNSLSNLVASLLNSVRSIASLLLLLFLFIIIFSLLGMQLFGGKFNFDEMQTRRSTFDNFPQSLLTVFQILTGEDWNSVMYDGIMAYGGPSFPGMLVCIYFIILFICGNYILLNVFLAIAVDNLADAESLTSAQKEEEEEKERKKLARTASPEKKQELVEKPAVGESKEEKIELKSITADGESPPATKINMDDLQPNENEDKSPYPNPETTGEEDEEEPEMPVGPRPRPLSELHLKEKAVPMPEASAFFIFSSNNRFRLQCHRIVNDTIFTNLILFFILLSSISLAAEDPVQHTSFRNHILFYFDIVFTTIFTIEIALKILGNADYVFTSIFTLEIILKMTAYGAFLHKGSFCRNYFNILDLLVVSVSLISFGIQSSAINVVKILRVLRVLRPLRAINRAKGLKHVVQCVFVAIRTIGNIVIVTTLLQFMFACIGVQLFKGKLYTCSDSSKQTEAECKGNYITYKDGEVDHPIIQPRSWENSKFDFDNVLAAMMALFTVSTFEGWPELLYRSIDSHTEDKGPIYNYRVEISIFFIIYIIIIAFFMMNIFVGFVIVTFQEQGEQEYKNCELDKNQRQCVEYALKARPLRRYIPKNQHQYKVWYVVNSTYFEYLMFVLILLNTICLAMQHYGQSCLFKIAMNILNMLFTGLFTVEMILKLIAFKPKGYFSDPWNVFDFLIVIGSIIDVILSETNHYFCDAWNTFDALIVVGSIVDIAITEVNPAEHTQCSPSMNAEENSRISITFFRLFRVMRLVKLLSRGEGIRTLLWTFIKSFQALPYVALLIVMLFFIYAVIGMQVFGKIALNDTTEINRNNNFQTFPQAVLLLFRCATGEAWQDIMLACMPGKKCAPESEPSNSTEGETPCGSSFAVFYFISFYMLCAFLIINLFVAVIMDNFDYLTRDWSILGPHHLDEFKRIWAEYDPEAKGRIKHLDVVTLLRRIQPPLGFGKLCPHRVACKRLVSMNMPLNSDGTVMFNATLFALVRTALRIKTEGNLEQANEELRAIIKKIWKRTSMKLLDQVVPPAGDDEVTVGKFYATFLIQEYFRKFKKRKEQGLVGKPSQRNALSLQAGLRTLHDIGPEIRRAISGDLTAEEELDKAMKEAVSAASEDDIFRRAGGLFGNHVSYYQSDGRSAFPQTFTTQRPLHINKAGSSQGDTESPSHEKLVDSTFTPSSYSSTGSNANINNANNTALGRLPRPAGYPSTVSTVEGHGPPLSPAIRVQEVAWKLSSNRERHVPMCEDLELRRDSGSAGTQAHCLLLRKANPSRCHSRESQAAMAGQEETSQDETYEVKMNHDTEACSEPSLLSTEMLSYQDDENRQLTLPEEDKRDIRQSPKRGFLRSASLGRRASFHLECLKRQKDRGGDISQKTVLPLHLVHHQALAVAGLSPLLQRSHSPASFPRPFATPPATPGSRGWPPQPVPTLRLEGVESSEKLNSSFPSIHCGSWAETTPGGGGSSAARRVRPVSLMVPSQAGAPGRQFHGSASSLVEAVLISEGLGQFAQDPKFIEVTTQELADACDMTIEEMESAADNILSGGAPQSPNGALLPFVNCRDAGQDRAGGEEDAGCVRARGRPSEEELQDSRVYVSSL
UniProt Q12809: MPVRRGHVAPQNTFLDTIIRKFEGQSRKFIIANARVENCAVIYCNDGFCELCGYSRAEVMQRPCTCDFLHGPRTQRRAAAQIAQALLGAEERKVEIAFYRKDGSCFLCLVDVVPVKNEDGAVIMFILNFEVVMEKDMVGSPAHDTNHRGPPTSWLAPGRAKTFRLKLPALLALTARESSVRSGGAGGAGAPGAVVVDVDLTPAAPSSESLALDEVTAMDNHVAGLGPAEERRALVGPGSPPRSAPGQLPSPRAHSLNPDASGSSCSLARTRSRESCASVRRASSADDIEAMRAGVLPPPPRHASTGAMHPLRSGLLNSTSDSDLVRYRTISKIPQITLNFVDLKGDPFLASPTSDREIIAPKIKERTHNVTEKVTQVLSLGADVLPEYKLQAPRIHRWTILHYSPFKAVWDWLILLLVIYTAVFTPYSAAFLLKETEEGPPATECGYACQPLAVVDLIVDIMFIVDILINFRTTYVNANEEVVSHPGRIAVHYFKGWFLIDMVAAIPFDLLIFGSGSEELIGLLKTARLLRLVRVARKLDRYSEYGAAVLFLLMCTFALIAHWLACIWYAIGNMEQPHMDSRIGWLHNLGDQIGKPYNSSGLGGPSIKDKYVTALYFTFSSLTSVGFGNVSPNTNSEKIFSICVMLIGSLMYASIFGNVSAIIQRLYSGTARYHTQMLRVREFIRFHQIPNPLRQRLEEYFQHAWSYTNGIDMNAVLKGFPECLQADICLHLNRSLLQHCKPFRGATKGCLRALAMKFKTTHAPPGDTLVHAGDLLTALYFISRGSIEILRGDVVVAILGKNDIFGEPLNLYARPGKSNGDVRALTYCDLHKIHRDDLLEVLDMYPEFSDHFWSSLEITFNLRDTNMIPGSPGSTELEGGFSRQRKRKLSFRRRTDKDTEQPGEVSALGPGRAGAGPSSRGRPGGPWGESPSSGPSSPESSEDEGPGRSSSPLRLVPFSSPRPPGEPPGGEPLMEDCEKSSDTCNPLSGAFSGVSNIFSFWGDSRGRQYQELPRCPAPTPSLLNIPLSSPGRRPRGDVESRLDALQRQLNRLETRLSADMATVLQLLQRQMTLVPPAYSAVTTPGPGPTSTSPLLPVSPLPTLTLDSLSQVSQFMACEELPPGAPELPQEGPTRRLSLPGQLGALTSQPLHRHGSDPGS

Legend:
Format in all cases: cell-based
hKv4.3 = target: T1, hKv4.3 (Homo sapiens, UniProt Q9UK17); experiment: Automated patch clamp (QPatch), transient outward K+ current Ito; details: room temperature; dash = no effect or IC50 much higher than tested concentrations
T1 construct: expressed in transfected cells; host or cells: HEK-293
T1 sequence (Q9UK17 1-655): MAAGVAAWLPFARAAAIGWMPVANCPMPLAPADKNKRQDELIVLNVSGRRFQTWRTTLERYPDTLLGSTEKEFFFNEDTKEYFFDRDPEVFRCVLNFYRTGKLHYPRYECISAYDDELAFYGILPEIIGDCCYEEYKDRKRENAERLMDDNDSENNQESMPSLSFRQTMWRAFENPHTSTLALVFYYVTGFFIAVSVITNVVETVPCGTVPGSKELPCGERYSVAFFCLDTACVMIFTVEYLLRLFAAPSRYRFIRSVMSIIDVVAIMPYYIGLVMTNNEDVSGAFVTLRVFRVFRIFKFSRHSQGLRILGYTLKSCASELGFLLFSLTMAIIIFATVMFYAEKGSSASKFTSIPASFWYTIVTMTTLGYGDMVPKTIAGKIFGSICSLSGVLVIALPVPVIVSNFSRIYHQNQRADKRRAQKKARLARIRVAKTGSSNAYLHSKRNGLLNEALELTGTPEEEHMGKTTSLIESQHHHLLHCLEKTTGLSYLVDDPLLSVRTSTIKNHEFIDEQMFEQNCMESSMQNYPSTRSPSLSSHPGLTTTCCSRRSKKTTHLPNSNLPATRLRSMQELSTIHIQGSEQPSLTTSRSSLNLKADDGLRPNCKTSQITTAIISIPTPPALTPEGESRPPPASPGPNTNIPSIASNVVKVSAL

hCav1.2 = target: T2, hCav1.2 (Homo sapiens, UniProt Q13936); experiment: Automated patch clamp (QPatch), L-type Ca2+ current ICaL; details: room temperature; dash = no effect or IC50 much higher than tested concentrations
T2 construct: expressed in transfected cells; host or cells: CHO

hERG = target: T3, hERG (Homo sapiens, UniProt Q12809); experiment: Automated patch clamp (QPatch), hERG tail current IKr; details: room temperature
T3 construct: host or cells: CHO (hERG-CHO) and HEK-293 stably transfected with hERG cDNA

Compound | IC50 (hKv4.3) [µM] | IC50 (hCav1.2) [µM] | IC50 (hERG) [µM]
Cc1nc2n(c(=O)c1CCN1CCC(c3noc4cc(F)ccc34)CC1)CCCC2 | 43 | – | –
CC(C)COCC(CN(Cc1ccccc1)c1ccccc1)N1CCCC1 (stereo not drawn) [Bepridil] | – | 6 | 0.19
